## scFv variants of Ab-14 (heavy chain) against a SARS-CoV-2 spike peptide

From the AlphaSeq antibody data of Engelhart et al. 2022 (doi:10.1038/s41597-022-01779-4), copy in the FLAb collection.

Target peptide (SARS-CoV-2 spike, HR2 region): PDVDLGDISGINAS

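AAYL49 was designed without a model: most single CDR substitutions and a random sample of double and triple ones. The assay is AlphaSeq: two haploid yeast populations carry antibody and antigen on their surface. Pairs that bind mate more often; barcode pairs of the diploids are counted by sequencing. The ratio of observed to expected reads was calibrated, replicate by replicate, on BCL2-family standards whose Kd was known from biolayer interferometry. Mating was done three times.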

Ab-14 is the parent antibody, in scFv form: VH, then the linker GGGGSGGGGSGGGGS, then VL. The light chain is unchanged in all variants.
VH: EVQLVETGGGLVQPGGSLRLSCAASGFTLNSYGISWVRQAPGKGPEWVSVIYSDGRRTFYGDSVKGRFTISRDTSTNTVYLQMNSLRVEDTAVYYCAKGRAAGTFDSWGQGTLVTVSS
VL: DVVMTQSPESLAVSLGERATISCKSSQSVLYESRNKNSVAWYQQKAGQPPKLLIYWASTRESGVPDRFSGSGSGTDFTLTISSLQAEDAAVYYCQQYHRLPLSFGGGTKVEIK

Changes read parent residue, position, new residue, counted from the first residue of the VH shown.
The read-out is the apparent dissociation constant on a log10 scale (nM): the lower, the stronger.
Averages over replicates are reported, and they cover detected replicates only.
"n.d." means that the variant was in the library but no mating with the target was seen in that replicate; the authors take this as a sign of poor binding, and no number exists.
Empty control strains, which show no peptide, gave a signal in 15% of pairings with library AAYL49; the median was 4.06 and 95% of these signals were weaker than 2.83. No background was subtracted. For each scFv, signals with the empty controls are counted beside the result, with their mean in brackets.

changes | log10 Kd (nM) by replicate | mean log10 Kd (nM) | empty controls
G26T+K65M+S107I | n.d. 2.50 3.54 | 3.02 | 0 of 9
Y60N+S63I | n.d. n.d. n.d. | n.d. | 0 of 9
N30Q+T58Y+S63P | 2.95 3.08 5.35 | 3.79 | 0 of 9
Y32W+G33Y+S53T | n.d. n.d. n.d. | n.d. | 0 of 9
G26T+V50T+K65I | 4.07 3.69 n.d. | 3.88 | 3 of 9 (3.70)
R57A+Y60W+S63Y | n.d. n.d. n.d. | n.d. | 2 of 9 (3.79)
S35C+R56Q | n.d. n.d. n.d. | n.d. | 1 of 9 (4.24)
S35P+S53P+G61T | n.d. n.d. n.d. | n.d. | 1 of 9 (4.87)
T28Q+G103C+T104C | n.d. 3.12 n.d. | 3.12 | 2 of 9 (3.82)
Y52D+F59H+S63K | n.d. 4.06 4.29 | 4.17 | 2 of 9 (4.08)
L29W+G55I+D62A | n.d. 4.71 n.d. | 4.71 | 3 of 9 (3.73)
G26N+R56K+S63D | 2.48 2.18 3.37 | 2.68 | 1 of 9 (4.34)
N30Q+A101P+D106M | n.d. 4.17 n.d. | 4.17 | 1 of 9 (4.39)
R100L+T104G+D106R | 1.95 1.76 2.21 | 1.98 | 1 of 9 (3.81)
F27M+G55E | n.d. n.d. n.d. | n.d. | 2 of 9 (2.80)
D62S+G103W | 0.99 1.34 1.43 | 1.25 | 0 of 9
S53N+K65F+A101E | 2.93 2.68 3.57 | 3.06 | 1 of 9 (4.76)
K65N+F105D+S107G | 1.39 1.60 1.73 | 1.58 | 5 of 9 (4.25)
F27Q+G55W+S63I | n.d. 4.16 n.d. | 4.16 | 1 of 9 (3.85)
G26T+T28W+G55M | n.d. n.d. 3.72 | 3.72 | 3 of 9 (3.56)
R56A+G61P+S107A | 1.90 2.29 2.60 | 2.26 | 3 of 9 (4.19)
G33I+V64Q+D106N | n.d. n.d. n.d. | n.d. | 1 of 9 (2.25)
V64R | n.d. n.d. n.d. | n.d. | 1 of 9 (4.08)
S35F+Y52F+T58D | n.d. n.d. n.d. | n.d. | 0 of 9
Y32K+S35C | n.d. 3.37 3.02 | 3.19 | 2 of 9 (3.91)
S35L+G99W | 3.66 n.d. n.d. | 3.66 | 0 of 9
L29K+G33W+D62I | 3.53 n.d. n.d. | 3.53 | 0 of 9
D54R+G55R+F105P | n.d. n.d. n.d. | n.d. | 1 of 9 (4.35)
V50Y+A102Y+S107W | n.d. n.d. n.d. | n.d. | 1 of 9 (3.17)
Y52W+S63V+K65W | n.d. n.d. n.d. | n.d. | 2 of 9 (4.84)
T58A+Y60T+F105V | n.d. n.d. 3.94 | 3.94 | 3 of 9 (4.75)
N30Y+S53G+T104M | n.d. n.d. n.d. | n.d. | 2 of 9 (4.44)
L29Y+T58E+S63N | n.d. n.d. n.d. | n.d. | 1 of 9 (5.03)
R57I+G61A+R100C | 4.63 n.d. n.d. | 4.63 | 1 of 9 (2.34)
G26K+T28H+D54R | n.d. 3.28 n.d. | 3.28 | 5 of 9 (3.97)
N30K+T58V+A102C | 2.92 2.43 2.62 | 2.66 | 1 of 9 (4.21)
N30S+T58E+G99W | n.d. n.d. n.d. | n.d. | 0 of 9
T28Y+S35V+G103W | n.d. n.d. n.d. | n.d. | 0 of 9
S31C+D62F+R100M | n.d. n.d. n.d. | n.d. | 0 of 9
R57P+F59I+A102P | n.d. 3.63 n.d. | 3.63 | 1 of 9 (3.03)
V50T+G55D+A102F | 2.72 n.d. n.d. | 2.72 | 1 of 9 (2.63)
N30L+S53V+Y60L | n.d. 3.90 n.d. | 3.90 | 4 of 9 (4.42)
D62C+G103C+D106A | 3.84 2.81 3.41 | 3.35 | 2 of 9 (4.92)
I34H+S35A+Y60F | n.d. n.d. n.d. | n.d. | 1 of 9 (2.90)
V50I+D62S+T104I | n.d. 3.52 n.d. | 3.52 | 3 of 9 (3.68)
V50K+T58N+A101G | n.d. n.d. n.d. | n.d. | 0 of 9
T28G+V50E+K65Q | 4.11 n.d. 4.00 | 4.05 | 2 of 9 (3.69)
Y60F+K65V+G103M | n.d. n.d. n.d. | n.d. | 0 of 9
S31R+I34T+F59P | n.d. n.d. 3.12 | 3.12 | 0 of 9

Extract of 6 entries:

changes | log10 Kd (nM) by replicate | mean log10 Kd (nM) | empty controls
F27M+G55E | n.d. n.d. n.d. | n.d. | 2 of 9 (2.80)
R57I+G61A+R100C | 4.63 n.d. n.d. | 4.63 | 1 of 9 (2.34)
G26N+R56K+S63D | 2.48 2.18 3.37 | 2.68 | 1 of 9 (4.34)
Y60N+S63I | n.d. n.d. n.d. | n.d. | 0 of 9
T58A+Y60T+F105V | n.d. n.d. 3.94 | 3.94 | 3 of 9 (4.75)
F27Q+G55W+S63I | n.d. 4.16 n.d. | 4.16 | 1 of 9 (3.85)